How the values were obtained:
[1] = target: biotinylated truncated STAT6 (123-632)-avi (Homo sapiens, UniProt P42226); assay: STAT6 HTRF binding assay; details: read-out: STAT6 HTRF: Average IC50; HTRF binding, 0.15 nM biotinylated truncated STAT6 (123-632)-avi, 20 nM fluorescein-labeled probe
STAT6-HiBiT = STAT6-HiBiT (Homo sapiens, UniProt P42226); assay: STAT6 HiBiT degradation in A549 (STAT6-HiBiT) cells; details: for DC50: read-out: STAT6 HiBiT degradation DC50 (nM) 24 h
Description: Degradation of STAT6 in endogenously tagged STAT6-HiBiT A549 cells was quantitatively measured using the Nano-Glo HiBiT Lytic Detection System (Promega, 3040). A549 (STAT6-HiBiT) cells were seeded in 384-well plates with a density of 1.25k cells per well in 20 μl fresh media. Compounds were then added to the assay plates using the Apricot S3 with a final top concentration of up to 10 uM in a 4-fold dilution series with total of 10 doses. The assay plates were then incubated for 24 hours at 37° C. under 5% CO2. At the assay endpoint, 20 μL of Nano-Glo HiBiT Lytic Reagent was added to each well and agitated on a plate shaker at 300 rpm for 10 minutes at room temperature. Luminescence was read on PHERAStar FSX Instrument (Is integration time). The data was analyzed by GraphPad Prism and the dose dependent STAT6 degradation was fit using the four-parameter inhibitor vs. response nonlinear regression.
The letter codes for DC50 (nM) include: A (<1 nM): B (1-10 nM); C (>10-100 nM); D (>100-1000 nM); E (>1000 nM); and F (not tested). The letter codes for Dmax (%) include: A (>90%); B (>70-90%); C (>50-70%); D (<50%); and E (not tested).

Protein sequences, listed by entry. Tags and fused reporters are not part of them. Residues count along the entry.
UniProt P42226, whole entry: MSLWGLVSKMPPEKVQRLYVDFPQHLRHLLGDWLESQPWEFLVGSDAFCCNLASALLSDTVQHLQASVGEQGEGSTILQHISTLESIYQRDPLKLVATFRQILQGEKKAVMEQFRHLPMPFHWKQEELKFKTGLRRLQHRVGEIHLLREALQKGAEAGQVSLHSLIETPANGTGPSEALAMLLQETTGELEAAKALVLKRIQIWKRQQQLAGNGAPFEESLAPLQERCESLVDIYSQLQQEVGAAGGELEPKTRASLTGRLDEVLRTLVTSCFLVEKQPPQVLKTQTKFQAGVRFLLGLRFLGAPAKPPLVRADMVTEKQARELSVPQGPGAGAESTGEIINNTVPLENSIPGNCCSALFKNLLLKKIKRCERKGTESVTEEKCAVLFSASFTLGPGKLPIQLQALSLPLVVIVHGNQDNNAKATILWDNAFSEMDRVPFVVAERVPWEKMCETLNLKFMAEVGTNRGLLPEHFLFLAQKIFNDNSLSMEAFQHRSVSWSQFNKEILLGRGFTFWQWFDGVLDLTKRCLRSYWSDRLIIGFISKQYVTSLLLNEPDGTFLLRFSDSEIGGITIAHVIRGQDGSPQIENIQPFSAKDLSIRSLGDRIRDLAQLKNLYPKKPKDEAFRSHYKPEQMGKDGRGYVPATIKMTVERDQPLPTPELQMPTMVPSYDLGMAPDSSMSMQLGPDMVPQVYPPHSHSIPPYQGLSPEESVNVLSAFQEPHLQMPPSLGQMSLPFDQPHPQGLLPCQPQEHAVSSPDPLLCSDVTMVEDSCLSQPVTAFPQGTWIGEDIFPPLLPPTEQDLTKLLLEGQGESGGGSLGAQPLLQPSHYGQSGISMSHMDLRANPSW
UniProt P42226, 123-632 limits assumed: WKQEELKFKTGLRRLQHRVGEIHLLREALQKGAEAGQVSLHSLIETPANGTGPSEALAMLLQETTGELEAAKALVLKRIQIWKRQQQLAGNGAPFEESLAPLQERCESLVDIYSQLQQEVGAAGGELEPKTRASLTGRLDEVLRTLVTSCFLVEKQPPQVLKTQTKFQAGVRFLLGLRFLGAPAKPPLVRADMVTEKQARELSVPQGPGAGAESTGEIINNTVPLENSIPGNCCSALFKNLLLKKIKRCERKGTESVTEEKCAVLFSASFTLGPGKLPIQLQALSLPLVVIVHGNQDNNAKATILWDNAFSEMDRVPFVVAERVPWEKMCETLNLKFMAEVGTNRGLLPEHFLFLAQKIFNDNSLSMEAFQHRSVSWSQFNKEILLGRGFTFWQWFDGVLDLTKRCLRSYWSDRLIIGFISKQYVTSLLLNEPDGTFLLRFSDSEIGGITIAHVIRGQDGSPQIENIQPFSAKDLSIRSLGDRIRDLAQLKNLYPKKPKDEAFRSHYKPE

SMILES	IC50 [1] [µM]	STAT6 HiBiT degradation Dmax % 24 h (STAT6-HiBiT)	DC50 (STAT6-HiBiT) [nM]
CN(C)C(=O)c1cc(-c2ccc(C3CCN(c4cccc5c(C6CCC(=O)NC6=O)nn(C)c45)CC3)cc2)c2nc(C3=CCCN(C(=O)CCn4ccnn4)C3)sc2c1 (centres unmarked)	< 0.1	A (A (>90%))	< 1
CN(C)C(=O)c1cc2c(-c3ccc(C4CCN(CCc5cccc6c5C(C)(C)C(=O)N6C5CCC(=O)NC5=O)CC4)c(F)c3F)cc(C3=CCCN(C(=O)CCn4cccn4)C3)c(F)c2[nH]1 (centres unmarked)	< 0.1	A (A (>90%))	< 1
CN(C)C(=O)c1cc2c(-c3ccc(C4CCN(c5ccc([C@@]6(C)CCC(=O)NC6=O)cc5F)CC4)cc3)cc(C3=CCCN(C(=O)CCn4ccnn4)C3)c(F)c2[nH]1 (single isomer, unassigned)	< 0.1	B (B (>70-90%))	< 1
CN(C)C(=O)c1cc2c(-c3cc(F)c(C4CCN(CCc5cccc6c5C(C)(C)C(=O)N6C5CCC(=O)NC5=O)CC4)cc3Cl)cc(C3=CCCN(C(=O)CCn4cccn4)C3)c(F)c2[nH]1 (centres unmarked)	< 0.1	A (A (>90%))	< 1
CCN(C)C(=O)c1cc2c(-c3ccc(N4CCN(c5ccc(C6CCC(=O)NC6=O)cc5F)CC4)c(F)c3F)cc(C3=CCCN(C(=O)CCn4ccnn4)C3)c(F)c2[nH]1 (centres unmarked)	< 0.1	A (A (>90%))	< 1
CN(C)C(=O)c1cc2c(-c3ccc(C4CCN(c5cc(F)c(C6CCC(=O)NC6=O)cc5F)CC4)cc3)cc(C3=CCCN(C(=O)CCn4ccnn4)C3)c(F)c2[nH]1 (centres unmarked)	< 0.1	A (A (>90%))	< 1
CN(C)C(=O)c1cc2c(-c3ccc(C4CCN(c5ccc(C6CCC(=O)NC6=O)cc5F)CC4)cc3F)cc(C3=CCCN(C(=O)CCn4ccnn4)C3)c(F)c2[nH]1 (single isomer, unassigned)	< 0.1	A (A (>90%))	< 1
CN(C)C(=O)c1cc2c(-c3ccc(C4CCN(c5ccc(C6CCC(=O)NC6=O)cc5F)CC4)c(F)c3F)cc(C3=CCCN(C(=O)CCn4ccnn4)C3)c(F)c2[nH]1 (centres unmarked)	< 0.1	A (A (>90%))	< 1
COc1cc(N2CC3(CCN(c4ccc(-c5cc(C6=CCCN(C(=O)CCn7cccn7)C6)c(F)c6[nH]c(C(=O)N(C)C)cc56)c(F)c4F)CC3)C2)c(F)cc1C(=O)NC1CCC(=O)NC1=O (centres unmarked)	0.1 to 1	A (A (>90%))	< 1
Cc1c(C2CCN(c3ccc(C4CCC(=O)NC4=O)cc3F)CC2)cnc(-c2cc(C3=CCCN(C(=O)CCn4cccn4)C3)c(F)c3[nH]c(C(=O)N(C)C)cc23)c1F (centres unmarked)	< 0.1	A (A (>90%))	< 1
CN(C)C(=O)c1cc(-c2ccc(C3CCN(c4cccc5c(C6CCC(=O)NC6=O)nn(C)c45)CC3)cc2)c2c(c1)cc(C1=CCCN(C(=O)CCn3ccnn3)C1)n2CC1CC1 (centres unmarked)	< 0.1	A (A (>90%))	< 1
Cc1cc(C2CCN(c3cccc4c3C(C)(C)C(=O)N4C3CCC(=O)NC3=O)CC2)ccc1-c1cc(C2=CCCN(C(=O)CCn3ccnn3)C2)c(F)c2[nH]c(C(=O)N(C)C)cc12 (centres unmarked)	< 0.1	A (A (>90%))	< 1
Cc1c(N2CCC(c3ccc(-c4cc(C5=CCCN(C(=O)CCn6cccn6)C5)c(F)c5[nH]c(C(=O)N(C)C)cc45)cc3)CC2)cnc(C2CCC(=O)NC2=O)c1F (centres unmarked)	< 0.1	A (A (>90%))	< 1
CN(C)C(=O)c1cc(-c2ccc(C3CCN(c4ccc(C5CCC(=O)NC5=O)cc4F)CC3)cc2)c2c(cc(C3=CCCN(C(=O)CCn4ccnn4)C3)n2CC2CC2)c1F (centres unmarked)	0.1 to 1	B (B (>70-90%))	10 to 100
CN(C)C(=O)c1cc2c(-c3cc(F)c(N4CCN(CCc5cccc6c5C(C)(C)C(=O)N6C5CCC(=O)NC5=O)CC4)cc3Cl)cc(C3=CCCN(C(=O)CCn4cccn4)C3)c(F)c2[nH]1 (centres unmarked)	< 0.1	A (A (>90%))	< 1
Cc1nc(-c2cc(C3=CCCN(C(=O)CCn4cccn4)C3)c(F)c3[nH]c(C(=O)N(C)C)cc23)c(F)cc1C1CCN(c2ccc(C3CCC(=O)NC3=O)cc2F)CC1 (centres unmarked)	< 0.1	A (A (>90%))	< 1

SMILES	IC50 [1] [µM]	STAT6 HiBiT degradation Dmax % 24 h (STAT6-HiBiT)	DC50 (STAT6-HiBiT) [nM]
CN(C)C(=O)c1cc2c(-c3ccc(N4CCC(c5ncc(C6CCC(=O)NC6=O)cc5F)CC4)c(F)c3F)cc(C3=CCCN(C(=O)CCn4cccn4)C3)c(F)c2[nH]1 (centres unmarked)	< 0.1	A (A (>90%))	< 1
CN(C)C(=O)c1cc2c(-c3ccc(C4CCN(c5ccc(NC6CCC(=O)NC6=O)cc5F)CC4)cc3)cc(C3=CCCN(C(=O)CCn4ccnn4)C3)c(F)c2[nH]1 (centres unmarked)	< 0.1	B (B (>70-90%))	–
CCN(C)C(=O)c1cc2c(-c3ccc(C4CCN(c5cccc6c5C(C)(C)C(=O)N6C5CCC(=O)NC5=O)CC4)cc3C)cc(C3=CCCN(C(=O)CCn4ccnn4)C3)c(F)c2[nH]1 (centres unmarked)	0.1 to 1	A (A (>90%))	< 1
CN(C)C(=O)c1cc2c(-c3ccc([C@@H]4CCN(C5CCN(c6ncc(C7CCC(=O)NC7=O)cc6F)CC5)CC4(F)F)c(F)c3F)cc(C3=CCCN(C(=O)CCn4cccn4)C3)c(F)c2[nH]1 (some centres unmarked)	< 0.1	A (A (>90%))	< 1
CN(C)C(=O)c1cc(-c2ccc(C3CCN(c4ccc(C5CCC(=O)NC5=O)cc4F)CC3)cc2)c2c(c1)c(F)c(C1=CCCN(C(=O)CCn3ccnn3)C1)n2CC1CC1 (centres unmarked)	< 0.1	A (A (>90%))	< 1
CN(C)C(=O)c1cc2c(-c3ccc([C@H]4CCN(C5CCN(c6ccc(C7CCC(=O)NC7=O)cc6F)CC5)CC4(F)F)c(F)c3F)cc(C3=CCCN(C(=O)CCn4cccn4)C3)c(F)c2[nH]1 (some centres unmarked)	< 0.1	A (A (>90%))	< 1
CN(C)C(=O)c1cc2c(-c3cc(F)c(N4CCC(c5ccc(C6CCC(=O)NC6=O)cc5F)CC4)cc3F)cc(C3=CCCN(C(=O)CCn4ccnn4)C3)c(F)c2[nH]1 (centres unmarked)	< 0.1	A (A (>90%))	< 1
CN(C)C(=O)c1cc2c(-c3ccc(N4CCN([C@H]5CCN(c6ccc(C7CCC(=O)NC7=O)cc6F)CC5(F)F)CC4)c(F)c3F)cc(C3=CCCN(C(=O)CCn4ccnn4)C3)c(F)c2[nH]1 (some centres unmarked)	< 0.1	A (A (>90%))	< 1
CN(C)C(=O)c1cc2c(-c3ccc(N4CCN([C@@H]5CCN(c6ccc(C7CCC(=O)NC7=O)cc6F)CC5(F)F)CC4)c(F)c3F)cc(C3=CCCN(C(=O)CCn4ccnn4)C3)c(F)c2[nH]1 (some centres unmarked)	< 0.1	A (A (>90%))	< 1
CN(C)C(=O)c1cc2c(-c3ccc([C@@H]4CCN(C5CCN(c6ccc(C7CCC(=O)NC7=O)cc6F)CC5)CC4(F)F)c(F)c3F)cc(C3=CCCN(C(=O)CCn4cccn4)C3)c(F)c2[nH]1 (some centres unmarked)	< 0.1	A (A (>90%))	< 1
CN(C)C(=O)c1cc(-c2ccc(CC3CCN(c4ccc(C5CCC(=O)NC5=O)cc4F)CC3)cc2)c2c(c1)cc(C1=CCCN(C(=O)CCn3ccnn3)C1)n2CC1CC1 (centres unmarked)	< 0.1	B (B (>70-90%))	1 to 10
CN(C)C(=O)c1cc2c(-c3ccc(C4CCN(CCc5cccc6c5C(C)(C)C(=O)N6C5CCC(=O)NC5=O)CC4)cc3)cc(C3=CCCN(C(=O)CCn4cccn4)C3)c(F)c2[nH]1 (centres unmarked)	< 0.1	A (A (>90%))	< 1
CN(C)C(=O)c1cc2c(-c3ccc(C4CCN(c5cnc(C6CCC(=O)NC6=O)cc5F)CC4)cc3)cc(C3=CCCN(C(=O)CCn4cccn4)C3)c(F)c2[nH]1 (centres unmarked)	< 0.1	A (A (>90%))	< 1
CN(C)C(=O)c1cc2c(-c3ccc(C4CCN(c5ccc(C6CCC(=O)NC6=O)c(Cl)c5F)CC4)cc3)cc(C3=CCCN(C(=O)CCn4ccnn4)C3)c(F)c2[nH]1 (centres unmarked)	< 0.1	A (A (>90%))	< 1
CC(=O)N1CCC=C(c2cc3cc(C(=O)N(C)C)cc(-c4ccc(C5CCN(c6cccc7c(C8CCC(=O)NC8=O)nn(C)c67)CC5)cc4)c3n2CC2CC2)C1 (centres unmarked)	1 to 10	B (B (>70-90%))	1 to 10
CN(C)C(=O)c1cc(-c2ccc(C3CCN(c4ccc(C5CCC(=O)NC5=O)cc4F)CC3)cc2)c2nc(C3=CCCN(C(=O)CCn4ccnn4)C3)sc2c1 (centres unmarked)	< 0.1	A (A (>90%))	1 to 10
